For one experiment, the target named is T1, His-tagged murine DLL4 (murine, UniProt Q9JI71 27-405, limits assumed).
T1 construct: domain: ECD5.5; also called murine DLL4-His; murine Delta4 (ECD5.5); not shown: His tag
As to the kind of experiment: SPR BIAcore-3000, antibody coupled to CM5 chip, DLL4-His injected, 25 C. The method, then: To determine the binding affinity of the anti-DLL4 Mabs, surface plasmon resonance (SRP) measurement with a BIAcore™-3000 was used (BIAcore, Inc., Piscataway, N.J.). Briefly, carboxymethylated dextran biosensor chips (CM5, BIAcore Inc.) were activated with N-ethyl-N′-(3-dimethylaminopropyl)-carbodiimide hydrochloride (EDC) and N-hydroxysuccinimide (NHS) according to the supplier's instructions. […] Next, IM ethanolamine was injected to block unreacted groups. […] Association rates (kon) and dissociation rates (koff) were calculated using a simple one-to-one Langmuir binding model (BIAcore Evaluation Software version 3.2). The equilibrium dissociation constant (Kd) was calculated as the ratio koff/kon.

Amino acid sequences for entries named in this document (tags omitted). A change or cut given only in a name is not applied to a line headed by its entry. Residues count along the entry.
UniProt Q9JI71, 27-405 limits assumed: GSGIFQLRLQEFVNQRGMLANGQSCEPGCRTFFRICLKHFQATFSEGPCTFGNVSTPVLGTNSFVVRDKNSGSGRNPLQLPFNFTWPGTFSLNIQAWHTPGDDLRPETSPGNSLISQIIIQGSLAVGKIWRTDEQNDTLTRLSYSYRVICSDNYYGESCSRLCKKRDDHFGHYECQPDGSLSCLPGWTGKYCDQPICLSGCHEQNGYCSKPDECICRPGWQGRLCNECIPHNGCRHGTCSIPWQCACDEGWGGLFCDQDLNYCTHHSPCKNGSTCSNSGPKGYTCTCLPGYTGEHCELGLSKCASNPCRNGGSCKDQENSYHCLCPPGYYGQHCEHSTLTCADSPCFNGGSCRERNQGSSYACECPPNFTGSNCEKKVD
UniProt P02769, 25-607 limits assumed: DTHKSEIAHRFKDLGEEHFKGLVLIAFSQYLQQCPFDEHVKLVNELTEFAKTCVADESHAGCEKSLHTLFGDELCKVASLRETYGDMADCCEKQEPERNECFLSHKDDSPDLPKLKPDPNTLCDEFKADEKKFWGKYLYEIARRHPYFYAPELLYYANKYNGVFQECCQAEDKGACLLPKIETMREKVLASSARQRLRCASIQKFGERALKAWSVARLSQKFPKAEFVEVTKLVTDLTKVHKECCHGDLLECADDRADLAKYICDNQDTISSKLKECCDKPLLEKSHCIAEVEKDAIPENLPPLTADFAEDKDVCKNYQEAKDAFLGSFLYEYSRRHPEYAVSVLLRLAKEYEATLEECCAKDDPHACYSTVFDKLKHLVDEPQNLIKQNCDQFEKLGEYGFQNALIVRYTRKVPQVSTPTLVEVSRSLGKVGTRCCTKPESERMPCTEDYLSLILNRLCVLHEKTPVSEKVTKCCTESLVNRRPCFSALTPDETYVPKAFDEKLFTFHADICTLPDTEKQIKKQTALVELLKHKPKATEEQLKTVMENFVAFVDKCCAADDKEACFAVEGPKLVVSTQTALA
UniProt P05187: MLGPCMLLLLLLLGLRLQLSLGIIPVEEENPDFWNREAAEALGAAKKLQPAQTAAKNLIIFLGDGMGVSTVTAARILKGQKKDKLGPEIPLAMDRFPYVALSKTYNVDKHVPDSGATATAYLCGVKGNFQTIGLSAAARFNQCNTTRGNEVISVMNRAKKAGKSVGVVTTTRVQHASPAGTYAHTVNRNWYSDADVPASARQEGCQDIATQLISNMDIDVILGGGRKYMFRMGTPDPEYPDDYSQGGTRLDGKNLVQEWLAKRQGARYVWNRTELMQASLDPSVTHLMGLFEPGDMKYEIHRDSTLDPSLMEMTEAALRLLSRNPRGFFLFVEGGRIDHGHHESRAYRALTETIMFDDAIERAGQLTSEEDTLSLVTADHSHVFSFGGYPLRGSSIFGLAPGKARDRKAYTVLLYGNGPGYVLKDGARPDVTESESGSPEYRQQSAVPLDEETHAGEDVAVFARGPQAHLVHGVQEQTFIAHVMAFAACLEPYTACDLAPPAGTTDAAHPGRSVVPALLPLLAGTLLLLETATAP
UniProt Q9NR61, 26-404 limits assumed: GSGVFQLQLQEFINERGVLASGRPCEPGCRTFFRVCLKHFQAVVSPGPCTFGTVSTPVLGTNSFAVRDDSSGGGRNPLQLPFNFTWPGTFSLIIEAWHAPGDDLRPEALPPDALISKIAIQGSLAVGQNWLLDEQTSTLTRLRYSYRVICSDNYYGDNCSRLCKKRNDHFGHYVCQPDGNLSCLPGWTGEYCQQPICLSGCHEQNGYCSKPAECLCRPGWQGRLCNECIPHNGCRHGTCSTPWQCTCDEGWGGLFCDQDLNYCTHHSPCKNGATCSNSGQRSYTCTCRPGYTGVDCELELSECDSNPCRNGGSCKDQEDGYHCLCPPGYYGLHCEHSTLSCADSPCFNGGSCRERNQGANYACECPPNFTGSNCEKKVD

The target of the next experiment is T2, ErbB2-ECD (HER2).
T2 construct: Coated on the ELISA plate as assay control; also called recombinant ErbB2-ECD
As to the kind of experiment: ELISA: coated recombinant protein, bound hIgG detected with anti-human antibody HRP, TMB, OD 450 nm.

Experiment [1] concerns the target T3, human DLL1 (purified recombinant protein coated on ELISA plate) (human, UniProt O00548 18-540, limits assumed).
T3 sequence (looked up): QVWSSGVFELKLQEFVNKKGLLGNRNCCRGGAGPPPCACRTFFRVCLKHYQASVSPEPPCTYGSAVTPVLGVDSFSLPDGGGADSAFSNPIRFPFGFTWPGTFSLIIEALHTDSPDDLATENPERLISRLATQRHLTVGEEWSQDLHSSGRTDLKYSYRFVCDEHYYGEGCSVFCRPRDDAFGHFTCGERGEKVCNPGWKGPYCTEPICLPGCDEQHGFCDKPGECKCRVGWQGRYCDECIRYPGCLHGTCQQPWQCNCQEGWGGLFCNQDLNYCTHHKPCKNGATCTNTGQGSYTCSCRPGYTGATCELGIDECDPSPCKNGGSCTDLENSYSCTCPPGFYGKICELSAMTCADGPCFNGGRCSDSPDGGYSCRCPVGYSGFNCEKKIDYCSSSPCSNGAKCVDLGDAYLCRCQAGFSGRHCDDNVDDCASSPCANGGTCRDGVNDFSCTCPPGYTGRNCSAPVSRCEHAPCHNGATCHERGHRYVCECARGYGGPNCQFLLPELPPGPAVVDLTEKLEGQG
The experiment is described as above.

The next experiment has as its target T4, BSA (bovine, UniProt P02769).
T4 construct: Negative control coat
Described as above.

Experiment [2] concerns the target human JAG1 (purified recombinant protein coated on ELISA plate) (human, UniProt P78504 34-1046, limits assumed). The description is as above.
Experiment [3] deals with T5, DLL1 on transiently transfected 293 cells (Homo sapiens (Human), UniProt O00548 18-723).
T5 construct: also called DLL1 transfected cells
T5 sequence: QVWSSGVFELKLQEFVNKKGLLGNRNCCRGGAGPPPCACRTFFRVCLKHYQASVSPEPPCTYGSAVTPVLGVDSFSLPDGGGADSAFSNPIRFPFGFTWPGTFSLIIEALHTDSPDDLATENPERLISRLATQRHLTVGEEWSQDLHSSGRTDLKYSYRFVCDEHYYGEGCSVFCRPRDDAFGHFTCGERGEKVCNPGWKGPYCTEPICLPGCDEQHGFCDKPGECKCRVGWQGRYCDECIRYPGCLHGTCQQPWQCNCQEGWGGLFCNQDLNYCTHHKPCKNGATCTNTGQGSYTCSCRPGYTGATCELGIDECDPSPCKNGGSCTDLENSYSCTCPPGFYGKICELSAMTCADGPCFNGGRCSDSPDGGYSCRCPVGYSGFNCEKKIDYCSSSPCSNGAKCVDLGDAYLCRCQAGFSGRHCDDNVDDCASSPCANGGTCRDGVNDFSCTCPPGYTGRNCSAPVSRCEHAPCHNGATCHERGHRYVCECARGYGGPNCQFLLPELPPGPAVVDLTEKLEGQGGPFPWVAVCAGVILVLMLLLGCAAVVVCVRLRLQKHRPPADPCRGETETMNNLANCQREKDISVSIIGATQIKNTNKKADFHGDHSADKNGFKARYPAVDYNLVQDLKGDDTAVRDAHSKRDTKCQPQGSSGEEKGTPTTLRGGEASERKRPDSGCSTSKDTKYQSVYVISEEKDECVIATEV
As to the kind of experiment: FACS of transiently transfected 293 cells, antibody at 2 µg/ml, goat anti-human IgG-PE [top panel].

Experiment [4] addresses T6, Jag1 on transiently transfected 293 cells (Homo sapiens (Human), UniProt P78504 34-1218).
T6 construct: also called Jag1 transfected cells
The experiment is described as above.

Experiment [5] addresses T7, DLL4-AP (amino acid 1-404 of DLL4 fused to human placenta alkaline phosphatase) (human, UniProt P05187 23-511).
T7 construct: Used as 293 cell conditioned medium; not shown: C-terminal human placenta alkaline phosphatase reporter and its junction
As to the kind of experiment: blocking ELISA: antibody titrated, DLL4-AP binding to coated rrNotch1-Fc.

The target in experiment [6] is T8, C-terminal His-tagged human DLL4 (amino acid 1-404) (human, UniProt Q9NR61 26-404).
T8 construct: range 26-404; the text calls it human DLL4-His; also called DLL4-His; human DLL4-His; not shown: C-terminal His tag
As to the kind of experiment: Blocking ELISA: antibody with purified DLL4-His, binding to coated rat Notch1-Fc, detected with mouse anti-His mAb, biotinylated goat anti-mouse, streptavidin-AP [lower panel].

Experiment [7] deals with T7, DLL4-AP (amino acid 1-404 of DLL4 fused …). As to the kind of experiment: Blocking ELISA: antibody preincubated with DLL4-AP conditioned medium, binding to coated rat Notch1-Fc (0.5 µg/ml), PNPP, OD 405 nm [upper panel].

Substitutions are numbered along the chain they refer to.

The source of these data is patent US20080175847A1 (Genentech, published 2008).

B1: YW26.6 (antibody, V domains shown)
VH: EVQLVESGGGLVQPGGSLRLSCAASGFTFTDNWISWVRQAPGKGLEWVGLINPQSGSSDYADSVKGRFTISADTSKNTAYLQMNSLRAEDTAVYYCARDNFGGYFDYWGQGTLVTVSS
VL: DIQMTQSPSSLSASVGDRVTITCRASQDVSTAVAWYQQKPGKAPKLLIYSASFLYSGVPSRFSGSGSGTDFTLTISSLQPEDFATYYCQQSYTGQSTFGQGTKVEIK
notes: Only the six HVRs are tied to the clone; also called clone 152.26.6
With B1, in the experiment with His-tagged murine DLL4, binding was put at a Kd of 150 pM.

B2: anti-DLL4 Mab YW26.82 (antibody, V domains shown)
VH: B1 VH with L50Y, N52S, Q54N, S57F, S58T, D59Y
VL: B1 VL with Q95T, S96V
For B2, the binding result in the experiment with ErbB2-ECD (HER2) was “no binding (tested: 50 µg/ml)”; in [1] it was “no binding (tested: 50 µg/ml)”; with BSA it was “no binding (tested: 50 µg/ml)”; in [2], “no binding (tested: 50 µg/ml)”; in [3] it was “no binding (tested: 2 µg/ml)”; in experiment [4] it was “no binding (tested: 2 µg/ml)”. The molecule further had an IC50 in experiment [5] of about 12000 pM. The “IC50 (read off the curve)” value in experiment [6] is about 1 µg/mL; in [7] it was about 2 µg/mL. The molecule also had a Kd in the experiment with His-tagged murine DLL4 of 90 pM.

B3: YW26.20 (antibody, V domains shown)
VH: B1 VH with L50V, Q54N, S57A, S58T, D59E
VL: B1 VL with T93N, Q95P
B3: in the experiment with His-tagged murine DLL4, the Kd was determined as 300 pM, the koff came to 0.0001 s⁻¹ and the kon is 330000 M⁻¹ s⁻¹.
